Data as given in US11542475B2, “3D microphysiologic system” (Northwestern University, priority 2014, dated 2023).

What was measured:
[1] = Stability of FSH and hCG in the microfluidic system (growth medium without follicles); conditions: 48 hours incubation
follicles = experiment: Follicle culture in microfluidic ovarian subsystem: progesterone secretion after hCG; assay type: cell-based

hCG: human chorionic gonadotropin, used to trigger ovulation
stability in the microfluidic system [1]: stable | progesterone secretion after hCG treatment (follicles): significantly increased
